Our source for the Ki values is BindingDB's records for doi:10.1016/j.chembiol.2004.12.010 (National Institutes of Health, 2005).

The target of this test is Adenosine receptor A2a (Homo sapiens, UniProt P29274). Nature of the test: Binding Assay. The text has this: Binding affinity of ligand at human adenosine receptors expressed in CHO cell.

`NCCNC(=O)[C@H]1O[C@@H](n2cnc3c(N)ncnc32)[C@H](O)[C@@H]1O` [5'-N-[(2-AMINO)ETHYL CARBOXAMIDO] ADENOSINE] displayed a Ki of 3.12 µM.

As a reminder, the Ki is the equilibrium dissociation constant of an inhibitor or competing ligand from its target. Read a high Ki as lower affinity.
